Molecular target: LRRK2(G2019S mutation, GST-LRRK2(amino acids 970-2527)) (Homo sapiens (Human), UniProt Q5S007, G2019S)
Assay: LRRK2 Km ATP LanthaScreen Assay
Conditions: read-out: LRRK2 IC50, mean IC50

The chains behind the UniProt entries cited, without tags or fusion partners. Residues count along the entry.
UniProt Q5S007, 970-2527 G2019S limits assumed: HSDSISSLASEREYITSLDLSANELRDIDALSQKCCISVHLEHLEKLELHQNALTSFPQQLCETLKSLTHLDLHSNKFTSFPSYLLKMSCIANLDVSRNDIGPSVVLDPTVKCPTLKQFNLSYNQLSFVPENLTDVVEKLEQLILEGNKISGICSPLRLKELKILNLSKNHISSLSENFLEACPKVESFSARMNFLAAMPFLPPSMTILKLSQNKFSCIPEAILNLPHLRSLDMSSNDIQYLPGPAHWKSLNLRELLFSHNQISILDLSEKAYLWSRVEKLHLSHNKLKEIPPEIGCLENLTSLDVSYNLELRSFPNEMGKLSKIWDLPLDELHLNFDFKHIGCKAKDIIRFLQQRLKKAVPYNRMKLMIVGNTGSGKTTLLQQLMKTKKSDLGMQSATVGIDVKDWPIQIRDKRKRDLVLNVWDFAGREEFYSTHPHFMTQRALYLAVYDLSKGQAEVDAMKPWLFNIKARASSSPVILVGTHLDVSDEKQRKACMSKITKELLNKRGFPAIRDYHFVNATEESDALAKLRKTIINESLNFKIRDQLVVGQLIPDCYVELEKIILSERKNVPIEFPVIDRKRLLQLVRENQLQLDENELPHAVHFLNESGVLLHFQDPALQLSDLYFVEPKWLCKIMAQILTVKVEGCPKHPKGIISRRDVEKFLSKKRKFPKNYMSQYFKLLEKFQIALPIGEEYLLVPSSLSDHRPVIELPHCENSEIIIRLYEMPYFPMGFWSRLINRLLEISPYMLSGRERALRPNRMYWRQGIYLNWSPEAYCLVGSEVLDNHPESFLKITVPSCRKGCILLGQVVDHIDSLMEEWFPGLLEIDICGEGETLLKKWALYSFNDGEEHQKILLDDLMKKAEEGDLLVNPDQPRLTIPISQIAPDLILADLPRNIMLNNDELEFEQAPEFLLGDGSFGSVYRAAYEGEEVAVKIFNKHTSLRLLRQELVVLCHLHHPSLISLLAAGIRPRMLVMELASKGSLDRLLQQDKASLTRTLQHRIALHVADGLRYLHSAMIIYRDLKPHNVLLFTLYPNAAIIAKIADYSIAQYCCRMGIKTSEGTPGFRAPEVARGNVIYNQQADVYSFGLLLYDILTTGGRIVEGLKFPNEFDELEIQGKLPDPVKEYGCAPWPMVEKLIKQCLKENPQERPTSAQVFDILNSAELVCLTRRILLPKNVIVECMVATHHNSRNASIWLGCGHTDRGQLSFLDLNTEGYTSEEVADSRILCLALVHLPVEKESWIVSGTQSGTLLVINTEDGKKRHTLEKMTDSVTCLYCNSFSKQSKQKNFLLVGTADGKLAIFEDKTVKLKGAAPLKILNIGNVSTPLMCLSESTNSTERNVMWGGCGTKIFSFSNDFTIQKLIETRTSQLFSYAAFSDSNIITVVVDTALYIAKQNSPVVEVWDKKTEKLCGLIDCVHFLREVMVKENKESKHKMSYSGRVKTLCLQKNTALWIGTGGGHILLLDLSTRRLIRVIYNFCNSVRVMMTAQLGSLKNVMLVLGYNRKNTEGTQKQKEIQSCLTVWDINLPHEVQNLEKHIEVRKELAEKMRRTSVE

Point of comparison: CN1CCN(c2cc(-c3n[nH]c4ccc(OC5(C)CC5)cc34)ncn2)CC12CC2, IC50 0.6 nM. Against it:
- COCC1(Oc2ccc3[nH]nc(-c4cc(N5CCOCC5)ncn4)c3c2)CC1 — 4.7-fold higher, 2.8 nM
- OCC1(Oc2ccc3[nH]nc(-c4cc(N5CCOCC5)ncn4)c3c2)CC1 — 4.8-fold higher, 2.9 nM
- COC[C@@H]1CN(c2cc(-c3n[nH]c4ccc(OC5(C)CC5)cc34)ncn2)CCO1 — 3.2-fold higher, 1.9 nM
- COC(=O)C1(Oc2ccc3[nH]nc(-c4cc(N5CCOCC5)ncn4)c3c2)CC1 — 36-fold higher, 21.7 nM
- C[C@@H]1CN(c2cc(-c3n[nH]c4ccc(OC5(C)CC5)cc34)ncn2)C[C@H](C)N1S(C)(=O)=O — 8.7-fold higher, 5.2 nM
- CC(O)[C@@H]1CN(c2cc(-c3n[nH]c4ccc(OC5(C)CC5)cc34)ncn2)CCO1 (stereo partly shown) — within 1.5-fold, 0.7 nM

From patent US9493440B2, “Compounds inhibiting leucine-rich repeat kinase enzyme activity” (Merck Sharp & Dohme Corp., priority 2013, dated 2016)
